The results in this text go back to US20250318525A1, “COMPOSITIONS TO CONTROL THE RELEASE RATES OF CHEMICAL PESTICIDES” (priority 2020, published 2025).

Structures are written as SMILES. ≈ marks a conversion by molar mass, not a printed value.

In the case of `O=C(O)COc1ccc(Cl)cc1Cl` [Ca(2,4D)2], the solubility (as a rule, the concentration that dissolves in the medium under given conditions) (as listed in FIG. 36) stood at 3390 µg/mL (≈ 15.3 mM).

`O=C([O-])COc1ccc(Cl)cc1Cl.[Na+]` [Na(2,4D)]: under “2,4D and its metal pairings, FIG. 36”, the “water solubility, comparison in words” value was “significantly higher water solubility than neutral 2,4D”.
